We go through one substance from patent US20200109182A1, “GLP-1 ANALOG FUSION PROTEIN AND PREPARATION METHOD AND APPLICATION THEREOF” (JIANGSU T-MAB BIOPHARMA CO., LTD, priority 2013, published 2020).

Where “and” joins values, the source holds several entries; their conditions need not be identical. Equal values may be shown once.

This experiment deals with KM mice. Put plainly: Mouse intraperitoneal glucose tolerance test (IPGTT). The conditions noted are these: for Area under curve (AUC0-120min) of blood glucose during IPGTT, individual animals: animals 1-10, 1 mg/kg. Type of experiment: in vivo. As to the method: After 1 hour and 8 hours after administration, intraperitoneal glucose tolerance tests (IPGTT) were respectively performed, intraperitoneal injection of 1.5 g/kg glucose was performed, and blood was taken before (t=0) glucose injection and after 10 min, 20 min, 30 min, 60 min, 90 min and 120 min after glucose injection to determine the content of glucose in blood (YSI2700 biochemical analyzer).

The mark [1] stands for this setting: IPGTT 1 h after single 1.0 mg/kg s.c. dose.
[2] abbreviates: IPGTT 8 h after single 1.0 mg/kg s.c. dose.

For “HSA: human serum albumin, 1.0 mg/kg, control group of the mouse IPGTT [reference compound]”, the “Area under curve (AUC0-120min) of blood glucose during IPGTT, Mean” value reads like this: under setting [1], 889; under setting [2], 821. Also, the “Area under curve (AUC0-120min) of blood glucose during IPGTT, individual animals” value reads like this: under setting [1], 1005 and 1096 and 818 and 713 and 724 and 778 and 817 and 1028 and 1220 and 688; under setting [2], 859 and 854 and 735 and 746 and 772 and 831 and 883 and 717 and 882 and 933.
